## Ab-14 light chain CDR variants: yeast mating affinities

Source: Li et al. 2023 (doi:10.1038/s41467-023-39022-2), MIT Lincoln Laboratory and A-Alpha Bio; data file from the FLAb repository.

Binding partner: SARS-CoV-2 spike HR2 peptide, sequence PDVDLGDISGINAS.

The variants keep the heavy chain, the linker and the frameworks of Ab-14 (scFv order VH, a 15-residue (Gly4Ser)3 linker, VL).
VH: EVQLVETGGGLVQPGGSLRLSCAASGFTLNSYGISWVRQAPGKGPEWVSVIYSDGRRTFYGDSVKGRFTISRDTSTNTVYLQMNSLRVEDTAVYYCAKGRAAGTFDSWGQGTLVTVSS
VL: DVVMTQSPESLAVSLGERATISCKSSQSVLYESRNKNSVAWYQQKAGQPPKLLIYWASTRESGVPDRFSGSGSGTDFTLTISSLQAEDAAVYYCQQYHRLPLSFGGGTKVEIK

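Designed CDR sequences, proposed from the first random library and measured here. Several design methods are mixed in this list. The scFvs were displayed on barcoded MATa yeast, the peptide on MATalpha yeast. The frequency of each diploid, read from paired DNA barcodes, reflects how well the two displayed proteins bind. A regression on co-assayed BCL2-family reference pairs converts the normalised counts of each replicate to an apparent Kd. Mating was done six times.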

Substitutions are numbered in sequence along the VL above, starting at 1 (not Kabat). Variants here have at most six changes. Values are apparent Kd, the geometric mean of the replicates that gave a signal; lower means stronger binding. A pair that was not seen in any replicate is written "no signal"; this usually means weak binding, but a binder can also be missed.

For S25T/S28D/N35P/A57G/S62P/H98F, the assay gave 9.5 nM (2 of 6 replicates; controls 0 of 18). The variant S25L/V29E/Y31M/W56N gave 530 pM (6 of 6 replicates; controls 1 of 18). The variant E32H gave no signal (0 of 6 replicates; controls 1 of 18). With S25H/V29L/N35F/T59E/S103W the result was no signal (0 of 6 replicates; controls 0 of 18). With V29F/N35A/W56G/T59Q the result was 1.3 nM (6 of 6 replicates; controls 5 of 18). The variant K24H/Y31V/Q96R/L100A gave no signal (0 of 6 replicates; controls 1 of 18).

The variant R34H/W56N/T59Q/E61M gave 18 nM (6 of 6 replicates; controls 1 of 18). The variant K24H/S25L/N35Q/W56N/T59Q showed 440 pM (6 of 6 replicates; controls 1 of 18). The variant L100N gave no signal (0 of 6 replicates; controls 2 of 18). The variant W56E/S58T gave 11 nM (6 of 6 replicates; controls 0 of 18). The variant S25L/N35Q/S38A/W56N gave 430 pM (6 of 6 replicates; controls 2 of 18). For S25L/Q27M/V29G/W56N, the assay gave 490 pM (6 of 6 replicates; controls 0 of 18).

The variant W56A/R99K/L100G gave no signal (0 of 6 replicates; controls 0 of 18). The variant S25V/S26L/L30V/S33G/W56S/S62D gave 13 nM (6 of 6 replicates; controls 0 of 18). The variant S25L/V29D/K36S/W56N/T59Q gave 1.4 nM (6 of 6 replicates; controls 1 of 18). For S33D/W56S, the assay gave 35 nM (6 of 6 replicates; controls 0 of 18). For E32L/R34G/W56D/S62A, the assay gave 1.4 nM (6 of 6 replicates; controls 0 of 18). The variant S25L/V29M/W56N/S62V gave 660 pM (6 of 6 replicates; controls 0 of 18).

The variant V29G/Y31M/K36A showed 21 nM (6 of 6 replicates; controls 0 of 18). With V29E/Y31Q/W56A/T59M the result was 53 nM (6 of 6 replicates; controls 4 of 18). The variant K24H/S25L/Q27P/V29T/W56N gave 1.5 nM (6 of 6 replicates; controls 0 of 18). With S25L/S26P/L30D/W56N the result was 17 nM (5 of 6 replicates; controls 0 of 18). For Q27T/W56G/S62R, the assay gave 2.9 nM (6 of 6 replicates; controls 0 of 18). The variant S25V/V29W/K36S/W56N/T59Q gave 2.9 nM (6 of 6 replicates; controls 1 of 18).

The variant S25L/Q27S/S28G/L30P/W56Q showed 830 pM (6 of 6 replicates; controls 0 of 18). For S25M/L30P/S33E/W56N/T59K, the assay gave 2.0 nM (6 of 6 replicates; controls 0 of 18). The variant S25L/S26R/S28Q/V29T/W56S/S62E showed 1.7 nM (6 of 6 replicates; controls 1 of 18). The variant S26L/W56H/S62D/R99Q gave 1.7 nM (6 of 6 replicates; controls 3 of 18). With Y31D/E32I/W56G the result was 6.7 nM (6 of 6 replicates; controls 1 of 18). With Q27I/V29Y/Y31E/N35Y/W56E the result was 3.4 nM (6 of 6 replicates; controls 2 of 18).

The variant K24S/S25F/N35T/W56N/A57G showed 950 pM (6 of 6 replicates; controls 1 of 18). The variant S25L/S26R/V29T/W56T/E61L showed 14 nM (6 of 6 replicates; controls 3 of 18). For S25F/Y31N/W56D, the assay gave 920 pM (6 of 6 replicates; controls 1 of 18). With S25E/S33W/W56D the result was 8.5 nM (6 of 6 replicates; controls 0 of 18). The variant S25L/S26L/W56N/E61M showed 1.3 nM (6 of 6 replicates; controls 4 of 18). The variant S25F/S26E/V29D/W56E gave 1.1 nM (6 of 6 replicates; controls 1 of 18).

The closing 3 entries, repeated:

changes	Kd	replicates with signal	empty controls
S25E/S33W/W56D	8.5 nM	6/6	0/18
S25L/S26L/W56N/E61M	1.3 nM	6/6	4/18
S25F/S26E/V29D/W56E	1.1 nM	6/6	1/18

A sequence measured in both rounds can read differently, since the two assays cover different ranges. As a blank, each scFv also met three strains without target: over all light chain designs, 4% of these pairings were detected, typically at 430 nM and seldom below 38 nM. For each scFv, signals with the empty controls are counted beside the result. The authors averaged sequences with at least three values out of six and counted those with two or fewer as poor binders.